# Results as given in patent US20230241060A1, “GLUCOCORTICOID-SPARING AGENT” (METRIOPHARM AG, priority 2020, published 2023).
# Assay: Body weight in pilot study of collagen induced arthritis (CIA) in mice
# Conditions: MP1032 1 mg/kg/day alone, intraperitoneally
structure (smiles),measurement,value
Nc1cccc2c(=O)[nH][nH]c(=O)c12.[Na],"Body weight on day 45, arithmetic mean ± standard deviation",22.8 ± 1.68 g
